Source: ChEMBL document CHEMBL5444388, “Affinity Phenotypic Cellular Literature for EUbOPEN Chemogenomic Library” (2024)

Chains of the proteins cited; added tags and fusions are not shown.
UniProt P15056, whole entry: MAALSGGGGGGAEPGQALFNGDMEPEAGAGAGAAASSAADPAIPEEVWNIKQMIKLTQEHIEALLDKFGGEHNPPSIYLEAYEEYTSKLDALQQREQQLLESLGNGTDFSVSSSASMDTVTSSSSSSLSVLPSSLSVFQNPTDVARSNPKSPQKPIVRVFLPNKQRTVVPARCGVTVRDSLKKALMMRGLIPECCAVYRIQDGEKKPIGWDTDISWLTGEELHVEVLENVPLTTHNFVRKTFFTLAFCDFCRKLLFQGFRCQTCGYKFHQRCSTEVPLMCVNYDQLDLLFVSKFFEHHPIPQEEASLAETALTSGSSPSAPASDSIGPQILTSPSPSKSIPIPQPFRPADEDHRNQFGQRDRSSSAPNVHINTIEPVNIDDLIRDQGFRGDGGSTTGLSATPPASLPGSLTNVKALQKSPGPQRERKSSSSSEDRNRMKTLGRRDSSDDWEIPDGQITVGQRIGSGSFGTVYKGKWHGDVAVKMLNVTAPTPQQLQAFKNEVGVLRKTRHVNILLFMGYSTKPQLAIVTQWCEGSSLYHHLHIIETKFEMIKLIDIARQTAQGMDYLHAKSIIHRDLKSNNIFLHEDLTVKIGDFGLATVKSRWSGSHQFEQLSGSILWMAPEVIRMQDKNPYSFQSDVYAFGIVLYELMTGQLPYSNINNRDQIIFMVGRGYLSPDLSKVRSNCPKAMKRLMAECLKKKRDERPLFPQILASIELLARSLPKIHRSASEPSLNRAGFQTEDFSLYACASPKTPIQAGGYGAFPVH
UniProt Q96LA8, whole entry: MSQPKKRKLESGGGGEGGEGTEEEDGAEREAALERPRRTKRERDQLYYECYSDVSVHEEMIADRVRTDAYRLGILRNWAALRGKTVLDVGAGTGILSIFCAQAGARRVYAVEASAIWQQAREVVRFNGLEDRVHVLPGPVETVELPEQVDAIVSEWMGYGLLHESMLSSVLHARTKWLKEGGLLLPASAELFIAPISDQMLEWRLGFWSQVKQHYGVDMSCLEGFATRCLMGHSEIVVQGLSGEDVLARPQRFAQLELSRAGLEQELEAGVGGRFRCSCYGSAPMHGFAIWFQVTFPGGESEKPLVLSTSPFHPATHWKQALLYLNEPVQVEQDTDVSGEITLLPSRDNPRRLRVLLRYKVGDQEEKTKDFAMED

What was measured:
[1] = target: Serine/threonine-protein kinase B-raf (Homo sapiens, UniProt P15056)
[2] = target: T1, Protein arginine N-methyltransferase 6 (Homo sapiens, UniProt Q96LA8)
[3] = target: T1, Protein arginine N-methyltransferase 6; remark: listed apart in the source

SMILES | IC50 [1] [µM] | IC50 [2] [µM] | IC50 [3] [µM]
CN(C)CCOc1ccc(-c2nc(-c3ccncc3)c(-c3ccc4c(c3)CC/C4=N\O)[nH]2)cc1 [SB590885] | > 13 |  | 
Cc1cc(C)cc([C@H]2c3cc(C)ccc3NC(=O)CN2C(=O)c2ccc(Br)s2)c1 |  | > 10 | > 10
